# scFv variants of Ab-14 (heavy chain) against a SARS-CoV-2 spike peptide

Antigen: PDVDLGDISGINAS, a 14-residue peptide of the SARS-CoV-2 spike HR2 region.

Parent scFv Ab-14: VH joined to VL by three GGGGS repeats. Changes lie in the heavy chain CDRs alone.
VH: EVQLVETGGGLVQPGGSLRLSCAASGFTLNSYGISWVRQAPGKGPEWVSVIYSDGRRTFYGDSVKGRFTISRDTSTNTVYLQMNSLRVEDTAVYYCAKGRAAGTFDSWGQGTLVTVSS
VL: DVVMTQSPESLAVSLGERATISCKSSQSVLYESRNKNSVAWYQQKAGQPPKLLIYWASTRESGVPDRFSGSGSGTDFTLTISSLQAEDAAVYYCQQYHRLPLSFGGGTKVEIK

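The starting antibody came from a phage panning campaign against this peptide. The library (AAYL49) carries one to three amino acid substitutions per variant, with no insertions or deletions. Affinity was read by AlphaSeq, a pooled yeast mating assay with surface-displayed partners. After mating in shaken culture at 30 °C for 16 h, diploids were selected and their barcode pairs sequenced. Read counts were normalised to the haploid input and turned into Kd by a linear fit to BCL2-family pairs of known affinity, for each replicate. Each pool was mated in three replicate cultures.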

Positions count from residue 1 of the parent VH; Y32D puts D in place of Y.
Values are apparent Kd, the geometric mean of the replicates that gave a signal; lower means stronger binding.
Where no diploid with the target was found in any replicate, the entry reads "nd": below detection, most likely a poor binder, though not proof of it.

For Y32D D54S Y60K, the assay gave nd (0 of 3 replicates).
For R56K G103L F105C, the assay gave 16 nM (3 of 3 replicates).
For G26P I51Q G61K, the assay gave 280 nM (1 of 3 replicates).
For S63F K65D, the assay gave 18 nM (3 of 3 replicates).
For F27R T28Q G103T, the assay gave nd (0 of 3 replicates).
For R100L G103W F105A, the assay gave 600 nM (3 of 3 replicates).
For D54E R56W T58N, the assay gave nd (0 of 3 replicates).
For F27M R57M R100T, the assay gave nd (0 of 3 replicates).
For Y52W T58Q, the assay gave nd (0 of 3 replicates).
For N30G G61E T104L, the assay gave 11 µM (3 of 3 replicates).
For S53N T58L V64W, the assay gave nd (0 of 3 replicates).
For T28W S31D Y60D, the assay gave nd (0 of 3 replicates).
For G26W T28M G99I, the assay gave 640 nM (1 of 3 replicates).
For V50S Y52D F105H, the assay gave nd (0 of 3 replicates).
For T58G S63I G103C, the assay gave nd (0 of 3 replicates).
For G26H S53G S107G, the assay gave nd (0 of 3 replicates).
For V50P D54P R100M, the assay gave 9.0 µM (1 of 3 replicates).
For S35A Y60F G99H, the assay gave nd (0 of 3 replicates).
For I34Y Y52T G61L, the assay gave 5.3 µM (3 of 3 replicates).
For I34M T58P D62M, the assay gave 2.9 µM (1 of 3 replicates).
For D54G S63E T104D, the assay gave nd (0 of 3 replicates).
For G33P D54T, the assay gave nd (0 of 3 replicates).

Second part, the sequence after the result:

160 nM (3 of 3 replicates): G26N S53A T104V.
62 µM (1 of 3 replicates): G33P V50N G61A.
450 nM (3 of 3 replicates): D62R K65R.
46 µM (1 of 3 replicates): S35G I51A F59E.
nd (0 of 3 replicates): S53L R57M G99V.
13 µM (1 of 3 replicates): G61K G103H.
54 nM (3 of 3 replicates): N30D I34C A101E.
nd (0 of 3 replicates): T58R D62K F105H.
nd (0 of 3 replicates): L29T A102D D106W.
200 nM (3 of 3 replicates): G26E S31Q S35N.
nd (0 of 3 replicates): L29D R56M R57F.
nd (0 of 3 replicates): V50R G55P G103W.
910 nM (2 of 3 replicates): Y52A G55M R56A.
140 µM (1 of 3 replicates): Y32H G33W F59P.
nd (0 of 3 replicates): N30D S63H T104W.
48 nM (3 of 3 replicates): D62M S63D.
230 µM (1 of 3 replicates): G26N S31D G55C.
nd (0 of 3 replicates): N30S S35L D106C.
48 µM (2 of 3 replicates): G55K R56F K65E.
nd (0 of 3 replicates): R56N T58P Y60P.
94 nM (3 of 3 replicates): Y60F A101E D106E.
1.0 µM (1 of 3 replicates): L29S I34W R57H.

For reference, the parent read 4.4 nM as the reference entry and 13 µM (one replicate of three) as a member of this library.
Background: pairings of library AAYL49 with three empty control strains gave a value in 15% of cases (median 11 µM, 5th percentile 680 nM). Values in that range, when seen in few replicates, are hard to tell from nonspecific mating.

Values reported by Engelhart et al. 2022, doi:10.1038/s41597-022-01779-4 (FLAb copy).